Target: α7 nAChRs (Rattus norvegicus, UniProt Q05941)
Experiment: In vitro competitive binding experiment with [125I] α-bgt as radioactive standard
Parameters: species or system SD rats
Details: for Ki: read-out: Ki (nM), in vitro binding affinity to α7 nAChRs, 0.4 nM [125I] α-bgt, Cheng-Prusoff, mean of three measurements ± SD; for IC50: read-out: α7 nAChR IC50, inhibition of binding of 0.4 nM [125I] α-bgt

The chains behind the UniProt entries cited, without tags or fusion partners. Residues count along the entry.
UniProt Q05941, 23-502 limits assumed: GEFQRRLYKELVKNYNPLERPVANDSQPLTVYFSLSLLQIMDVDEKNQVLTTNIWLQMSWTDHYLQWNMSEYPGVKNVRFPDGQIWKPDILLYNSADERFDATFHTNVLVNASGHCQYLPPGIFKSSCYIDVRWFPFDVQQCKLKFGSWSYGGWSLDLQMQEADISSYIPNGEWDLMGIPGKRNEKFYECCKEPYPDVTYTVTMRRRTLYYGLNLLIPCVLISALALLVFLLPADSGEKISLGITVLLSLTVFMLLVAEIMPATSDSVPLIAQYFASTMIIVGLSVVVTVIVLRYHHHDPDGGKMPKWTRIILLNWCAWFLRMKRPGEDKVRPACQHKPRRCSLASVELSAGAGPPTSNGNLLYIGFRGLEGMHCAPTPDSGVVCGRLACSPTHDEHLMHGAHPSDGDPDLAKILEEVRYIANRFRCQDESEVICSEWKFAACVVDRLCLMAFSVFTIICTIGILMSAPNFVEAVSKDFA

Compound	Ki	IC50
O=C(Oc1ccc2ccn(CCF)c2c1)N1CCN2CCC1CC2	224 nM	–
O=C(Oc1ccc2c(ccn2CCF)c1)N1CCN2CCC1CC2	365 nM	–
O=C1c2cc(F)ccc2-c2ccc(N3CCN4CCC3CC4)cc21 [II-6]	7.24 nM	20.9 nM
Fc1ncccc1-c1ccc2oc(N3CCN4CCC3CC4)nc2n1	21.8 nM	–
O=C1c2cc(N3CCN4CCC3CC4)ccc2-c2cccc(F)c21 [II-15]	2.98 nM	6.23 nM

From patent publication US20200147243A1, “LIGAND COMPOUND OF ALPHA7 NICOTINIC ACETYLCHOLINE RECEPTOR AND APPLICATION THEREOF” (BEIJING NORMAL UNIVERSITY, priority 2017, published 2020)
